Data as given in patent publication US7132401B2, “Beta-secretase substrates and uses thereof” (Merck & Co., Inc., priority 2002, dated 2006).

By UniProt entry, the sequences of proteins in these tests, tags left out. Residues count along the entry.
UniProt P56817, 46-501: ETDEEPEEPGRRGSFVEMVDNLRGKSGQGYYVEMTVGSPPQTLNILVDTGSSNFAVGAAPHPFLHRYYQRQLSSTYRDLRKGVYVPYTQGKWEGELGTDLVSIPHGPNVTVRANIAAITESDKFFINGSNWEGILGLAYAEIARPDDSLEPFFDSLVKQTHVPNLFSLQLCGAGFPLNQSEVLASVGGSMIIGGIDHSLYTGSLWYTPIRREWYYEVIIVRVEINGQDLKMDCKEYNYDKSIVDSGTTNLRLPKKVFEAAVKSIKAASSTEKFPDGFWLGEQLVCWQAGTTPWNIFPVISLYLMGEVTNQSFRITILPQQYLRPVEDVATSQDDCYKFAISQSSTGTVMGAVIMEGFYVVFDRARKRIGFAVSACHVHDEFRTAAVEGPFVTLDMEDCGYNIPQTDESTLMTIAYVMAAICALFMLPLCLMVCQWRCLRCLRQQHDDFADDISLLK

Biological target: β-secretase (Homo sapiens, UniProt P56817)
Assay: β-secretase cleavage of peptide substrates and peptide libraries followed by LC/MS
Assay type: biochemical
Method: Following synthesis and purification, each of the eight peptide libraries was incubated with the enzyme β-secretase and the relative rates of cleavage of each individual peptide library component was followed with liquid chromatography/mass spectrometry (LC/MS) with analysis of both the depletion of the full length peptide substrate, as well as the formation of peptide cleavage fragments. The enzyme β-secretase was incubated at concentrations ranging from 5 to 50 nM at pH 4.5 with each of the peptide libraries and/or mixtures of synthetic peptide substrates.
For all incubations, the concentration of each individual peptide substrate was held at 1 μM to avoid precipitation, which could be observed at higher substrate concentrations with some of the more insoluble substrates. The mixtures of substrates and enzyme were incubated in an Agillent Technology 1100 series liquid chromatograph with a temperature controlled autosampler. The temperature for all β-secretase enzymatic assays was held constant at 37° C. A 100 μl aliquot of each reaction mixture was injected onto a 1×50 mm C18 reverse phase 1c column (Metachem Technologies Inc., Torrance, Calif.) every two hours to monitor reaction progress. After injection, a highly optimized solvent gradient was delivered to the column to maximize resolving power for each of the substrate library components. Optimal performance was obtained with a gradient starting at 20% solvent B (B=Acetonitrile with 0.05% trifluoroacetic acid, A=0.05% TFA in H2O) and increasing to 40% solvent B over 40 minutes. After the LC/MS run, the data were processed by selected-ion chromatograms for each of the peptide substrate library components by extracting 0.5 Da mass windows surrounding the calculated mass values of each of the peptides.
For example, FIG. 2 illustrates the differences in rates of cleavage observed for all peptide library components from the P1′ peptide library when treated with the enzyme β-secretase.

EVNLAAEF was tested, and the “rate of cleavage (depletion of full length substrate) of P1′ peptide library components” value (P1′ peptide library treated with β-secretase, FIG. 2) was “most rapidly hydrolyzed”, the “formation of C-terminal cleavage products from the P1′ peptide library” value (P1′ peptide library, FIG. 3) was “more rapid and comparable rates of formation” and the “Relative rates of hydrolysis” value (hydrolysis by β-secretase, Swedish mutant EVNLDAEF (SEQ ID NO: 257) = 1, each peptide 1 μM, pH 4.5, 37° C.) was 10.
